Biological target: Mu opioid receptor (Homo sapiens, UniProt P35372)
Experiment: [35S]GTPγS binding assay, affinity at the μ receptor
Assay type: biochemical
Details: read-out: calc Ki μ; mu opioid receptor membranes

The chains behind the UniProt entries cited, without tags or fusion partners. Where a name states a change or a piece, a line headed by the entry shows the natural chain unless it says otherwise.
UniProt P35372: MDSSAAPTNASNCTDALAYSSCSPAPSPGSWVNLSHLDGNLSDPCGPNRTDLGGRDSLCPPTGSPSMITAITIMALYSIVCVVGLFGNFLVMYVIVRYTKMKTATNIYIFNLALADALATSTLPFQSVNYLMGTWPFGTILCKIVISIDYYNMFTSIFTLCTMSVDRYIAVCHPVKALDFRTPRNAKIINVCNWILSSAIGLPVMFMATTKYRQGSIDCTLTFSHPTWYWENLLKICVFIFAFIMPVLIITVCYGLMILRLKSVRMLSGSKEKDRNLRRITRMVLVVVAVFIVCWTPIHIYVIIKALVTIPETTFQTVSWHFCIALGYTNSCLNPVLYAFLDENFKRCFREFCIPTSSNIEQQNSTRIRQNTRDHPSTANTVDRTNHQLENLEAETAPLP
UniProt P41145: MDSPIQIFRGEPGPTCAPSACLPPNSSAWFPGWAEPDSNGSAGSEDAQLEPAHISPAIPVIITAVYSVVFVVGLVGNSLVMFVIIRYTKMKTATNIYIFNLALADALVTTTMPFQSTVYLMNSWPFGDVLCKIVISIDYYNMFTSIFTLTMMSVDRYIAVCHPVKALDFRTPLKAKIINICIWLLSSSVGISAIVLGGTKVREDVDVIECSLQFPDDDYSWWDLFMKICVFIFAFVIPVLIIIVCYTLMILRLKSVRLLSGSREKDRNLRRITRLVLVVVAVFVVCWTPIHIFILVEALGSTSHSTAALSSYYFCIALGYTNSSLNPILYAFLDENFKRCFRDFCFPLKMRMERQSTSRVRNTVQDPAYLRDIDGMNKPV
UniProt P41143: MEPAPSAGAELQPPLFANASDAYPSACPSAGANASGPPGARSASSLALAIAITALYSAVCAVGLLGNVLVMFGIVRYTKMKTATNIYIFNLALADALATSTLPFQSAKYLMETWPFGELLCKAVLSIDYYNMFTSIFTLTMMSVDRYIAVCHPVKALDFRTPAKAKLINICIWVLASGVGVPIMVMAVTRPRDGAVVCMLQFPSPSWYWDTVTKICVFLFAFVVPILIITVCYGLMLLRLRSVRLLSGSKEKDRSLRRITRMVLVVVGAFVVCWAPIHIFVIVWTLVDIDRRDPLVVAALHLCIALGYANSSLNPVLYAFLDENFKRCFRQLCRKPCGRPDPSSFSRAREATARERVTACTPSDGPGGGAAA
UniProt P41146: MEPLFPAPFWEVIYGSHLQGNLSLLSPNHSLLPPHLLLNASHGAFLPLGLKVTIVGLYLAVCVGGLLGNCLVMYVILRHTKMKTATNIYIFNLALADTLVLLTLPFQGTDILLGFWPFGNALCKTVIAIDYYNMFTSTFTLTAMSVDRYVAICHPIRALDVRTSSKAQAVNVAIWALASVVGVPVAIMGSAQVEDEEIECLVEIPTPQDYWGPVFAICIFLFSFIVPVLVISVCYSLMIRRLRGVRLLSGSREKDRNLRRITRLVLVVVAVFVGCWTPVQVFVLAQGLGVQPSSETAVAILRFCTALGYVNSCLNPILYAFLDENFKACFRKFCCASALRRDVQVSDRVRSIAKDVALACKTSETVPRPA

Row | Substance | Ki [nM]
1 | 8-[3,3-Bis(phenyl)-4-oxo-butyl]-1-phenyl-1-phenyl-1,3,8-triazospiro[4.5]decan-4-one | 0.044
2 | 8-benzodioxane-1-phenyl-1,3,8-triazospiro[4.5]decan-4-one | 2.9
3 | 8-benzyloxybenzyl-1-phenyl-1,3,8-triazospiro[4.5]decan-4-one | 296
4 | 8-benzylpiperadine-1-phenyl-1,3,8-triazospiro[4.5]decan-4-one | 315
5 | 8-dacalin-1-phenyl-1,3,8-triazospiro[4.5]decan-4-one | 9.3
6 | 8-phenyl-benzyl-1-phenyl-1,3,8-triazospiro[4.5]decan-4-one | 49
7 | 8-phenyl-ethyl-1-phenyl-1,3,8-triazospiro[4.5]decan-4-one | 98
8 | 8-quinoline-methyl-1-phenyl-1,3,8-triazospiro[4.5]decan-4-one | 91
9 | 8[3-oxo-5-phenyl-1,2 cyclohexene]-1-phenyl-1,3,8-triazospiro[4.5]decan-4-one | 672

Biological target: kappa opioid receptor (Homo sapiens, UniProt P41145)
Experiment: [35S]GTPγS binding assay, affinity at the k receptor
Assay type: biochemical
Details: read-out: calc Ki k; kappa opioid receptor membranes

Row | Substance | Ki [nM]
10 | 8-[3,3-Bis(phenyl)-4-oxo-butyl]-1-phenyl-1-phenyl-1,3,8-triazospiro[4.5]decan-4-one | 23
11 | 8-benzodioxane-1-phenyl-1,3,8-triazospiro[4.5]decan-4-one | 2400
12 | 8-benzyloxybenzyl-1-phenyl-1,3,8-triazospiro[4.5]decan-4-one | 1450
13 | 8-benzylpiperadine-1-phenyl-1,3,8-triazospiro[4.5]decan-4-one | > 10000
14 | 8-dacalin-1-phenyl-1,3,8-triazospiro[4.5]decan-4-one | 190
15 | 8-phenyl-benzyl-1-phenyl-1,3,8-triazospiro[4.5]decan-4-one | 690
16 | 8-phenyl-ethyl-1-phenyl-1,3,8-triazospiro[4.5]decan-4-one | 1300
17 | 8-quinoline-methyl-1-phenyl-1,3,8-triazospiro[4.5]decan-4-one | 3210
18 | 8[3-oxo-5-phenyl-1,2 cyclohexene]-1-phenyl-1,3,8-triazospiro[4.5]decan-4-one | > 10000

Biological target: delta opioid receptor (δ2) (Homo sapiens, UniProt P41143)
Experiment: [35S]GTPγS binding assay, affinity at the δ receptor
Assay type: biochemical
Details: read-out: calc Ki δ2; delta opioid receptor membranes

Row | Substance | Ki [nM]
19 | 8-[3,3-Bis(phenyl)-4-oxo-butyl]-1-phenyl-1-phenyl-1,3,8-triazospiro[4.5]decan-4-one | 650
20 | 8-benzyloxybenzyl-1-phenyl-1,3,8-triazospiro[4.5]decan-4-one | 7620
21 | 8-benzylpiperadine-1-phenyl-1,3,8-triazospiro[4.5]decan-4-one | > 10000
22 | 8-dacalin-1-phenyl-1,3,8-triazospiro[4.5]decan-4-one | 6910
23 | 8-phenyl-benzyl-1-phenyl-1,3,8-triazospiro[4.5]decan-4-one | 7520
24 | 8-phenyl-ethyl-1-phenyl-1,3,8-triazospiro[4.5]decan-4-one | > 10000
25 | 8-quinoline-methyl-1-phenyl-1,3,8-triazospiro[4.5]decan-4-one | > 10000
26 | 8[3-oxo-5-phenyl-1,2 cyclohexene]-1-phenyl-1,3,8-triazospiro[4.5]decan-4-one | > 10000

Biological target: human opioid receptor-like receptor (ORL-1) (Homo sapiens, UniProt P41146)
Experiment: Functional [35S]GTPγS binding assay, nociceptin affinity at the ORL1 receptor
Details: read-out: Nociceptin Affinity calc Ki; membranes from recombinant HEK-293 cells expressing human ORL-1

Row | Substance | Ki [nM]
27 | 8-[3,3-Bis(phenyl)-4-oxo-butyl]-1-phenyl-1-phenyl-1,3,8-triazospiro[4.5]decan-4-one | 69.8
28 | 8-benzodioxane-1-phenyl-1,3,8-triazospiro[4.5]decan-4-one | 57
29 | 8-benzyloxybenzyl-1-phenyl-1,3,8-triazospiro[4.5]decan-4-one | 323
30 | 8-benzylpiperadine-1-phenyl-1,3,8-triazospiro[4.5]decan-4-one | 1960
31 | 8-dacalin-1-phenyl-1,3,8-triazospiro[4.5]decan-4-one | 3.6
32 | 8-fluorophenyloxypropyl-1-phenyl-1,3,8-triazospiro[4.5]decan-4-one | 1570
33 | 8-phenyl-benzyl-1-phenyl-1,3,8-triazospiro[4.5]decan-4-one | 1140
34 | 8-phenyl-ethyl-1-phenyl-1,3,8-triazospiro[4.5]decan-4-one | 288
35 | 8-quinoline-methyl-1-phenyl-1,3,8-triazospiro[4.5]decan-4-one | 465
36 | 8[3-oxo-5-phenyl-1,2 cyclohexene]-1-phenyl-1,3,8-triazospiro[4.5]decan-4-one | 861

— patent US6686370B2, “Triazospiro compounds having nociceptin receptor affinity” (Euro-Celtique S.A., priority 1999, dated 2004)
